ChEMBL document CHEMBL1926631, “N⁴-Aryl-6-substitutedphenylmethyl-7H-pyrrolo[2,3-d]pyrimidine-2,4-diamines as receptor tyrosine kinase inhibitors” (Bioorg Med Chem, 2012)

Protein sequences, listed by entry. Tags and fused reporters are not part of them.
UniProt P17948, whole entry: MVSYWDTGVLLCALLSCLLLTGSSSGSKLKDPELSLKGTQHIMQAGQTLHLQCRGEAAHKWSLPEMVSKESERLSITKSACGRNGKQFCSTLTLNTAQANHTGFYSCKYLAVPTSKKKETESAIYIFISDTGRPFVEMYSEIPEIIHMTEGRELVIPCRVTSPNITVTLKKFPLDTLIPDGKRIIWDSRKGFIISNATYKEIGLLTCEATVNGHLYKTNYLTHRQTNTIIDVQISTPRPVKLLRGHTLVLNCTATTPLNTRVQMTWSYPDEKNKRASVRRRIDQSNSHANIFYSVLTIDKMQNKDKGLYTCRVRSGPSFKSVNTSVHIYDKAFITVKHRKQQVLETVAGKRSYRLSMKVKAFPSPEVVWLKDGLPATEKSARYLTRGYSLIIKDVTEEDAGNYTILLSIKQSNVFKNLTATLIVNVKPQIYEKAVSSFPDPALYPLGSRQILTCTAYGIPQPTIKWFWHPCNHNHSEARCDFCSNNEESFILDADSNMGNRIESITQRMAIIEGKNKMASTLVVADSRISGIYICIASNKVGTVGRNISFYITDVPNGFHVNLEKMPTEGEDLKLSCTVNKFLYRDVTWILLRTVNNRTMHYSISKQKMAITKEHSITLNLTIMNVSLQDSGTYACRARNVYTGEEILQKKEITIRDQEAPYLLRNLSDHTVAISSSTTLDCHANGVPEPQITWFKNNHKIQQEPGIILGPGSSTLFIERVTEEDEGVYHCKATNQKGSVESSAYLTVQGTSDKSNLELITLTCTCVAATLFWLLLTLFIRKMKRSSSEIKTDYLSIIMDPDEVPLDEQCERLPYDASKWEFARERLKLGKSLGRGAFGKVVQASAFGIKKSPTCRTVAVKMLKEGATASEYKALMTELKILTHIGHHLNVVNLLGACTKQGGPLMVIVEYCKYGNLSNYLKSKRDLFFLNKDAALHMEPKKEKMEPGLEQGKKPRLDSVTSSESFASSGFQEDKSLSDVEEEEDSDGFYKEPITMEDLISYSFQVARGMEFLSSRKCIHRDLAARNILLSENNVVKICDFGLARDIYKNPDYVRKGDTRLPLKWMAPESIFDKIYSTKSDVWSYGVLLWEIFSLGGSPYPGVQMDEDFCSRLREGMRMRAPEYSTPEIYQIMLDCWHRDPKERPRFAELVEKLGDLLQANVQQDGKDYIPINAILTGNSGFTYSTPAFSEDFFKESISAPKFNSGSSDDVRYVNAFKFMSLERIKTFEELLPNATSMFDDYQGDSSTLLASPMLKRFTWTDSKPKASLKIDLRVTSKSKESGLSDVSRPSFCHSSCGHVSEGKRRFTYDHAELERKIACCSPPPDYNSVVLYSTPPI

Biological target: Vascular endothelial growth factor receptor 1 (Homo sapiens, UniProt P17948)
Assay: Inhibition of VEGFR1 tyrosine kinase activity in VEGF-stimulated human A498 cells after 60 mins by ELISA
Type: cell-based
Outline: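 Then stimulated 10 min with 100 ng/mL growth factor: PDGF-BB for SF-539 (PDGFR-β), VEGF for A498 (VEGFR-1). Lysed in ice-cold TBS/0.05% triton with protease and phosphatase inhibitors, heat/ethanol-fixed. Total phosphotyrosine read by HRP anti-phosphotyrosine with luminol chemiluminescence.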

Nc1nc(Nc2cccc(Br)c2)c2cc(Cc3cccc4ccccc34)[nH]c2n1
IC50: 16 µM
